{
  "source": "patent US4388237A",
  "about": "“6(1-Piperazinyl), piperidino and (1(homopiperazinyl)11-cyanomethylene morphanthridines” (BASF Aktiengesellschaft, priority 1979, dated 1983)",
  "type_in_all_cases": "in vivo",
  "key": {"[1]": {"test_system": "female NMRI mice", "assay": "Analgesic effect (D'Amour and Smith tail-flick method)", "conditions": "relative to Clozapin (1.00)"}, "[2]": {"test_system": "female Sprague-Dawley rats", "assay": "Apomorphine-antagonistic effect (jaw movements, mandibulogram)", "conditions": "relative to Clozapin (1.00)", "procedure": "4. Apomorphine-antagonistic effect\nJaw motions are triggered in groups of 4-6 female Sprague-Dawley rats by subcutaneous administration of 1.5 mg of apomorphine/kg, and are recorded by means of implanted electrodes (Kubacki mandibulogram, 1978) .\nThe ED 50% is the dose which reduces the number of jaw movements by 50% compared to untreated control animals."}, "[3]": {"test_system": "female NMRI mice", "assay": "Sedative effect (orientation hypermotility)", "conditions": "relative to Clozapin (1.00)", "procedure": "The substances are administered orally to groups of 4×3 or 8×3 female NMRI mice. The orientation hypermotility induced by a new environment is determined photoelectrically, 30 minutes after the administration of the substances, for a period of 30 minutes. The ED 50% is taken as the dose which reduces the orientation hypermotility by 50%, compared to untreated control animals."}, "[4]": {"test_system": "female NMRI mice", "assay": "Anti-cholinergic effect (protection against death from Physostigmin)", "conditions": "for Anti-cholinergic effect (in words): discussion of Table 1, Physostigmin antagonism", "procedure": "3. Anti-cholinergic effect\nA lethal dose (0.825 mg/kg) of Physostigmin is administered subcutaneously to groups of 10 female NMRI mice. The test substances are administered orally 30 minutes before administering the Physostigmin.\nThe ED 50% is the dose of substance which protects 50% of the animals against death from Physostigmin."}},
  "note": "“Also recorded” adds a separate entry of the source.",
  "data": [
    {"compound": "Cc1ccc2c(c1)N=C(N1CCN(C)CC1)c1ccccc1C2=CC#N", "note": "(mixture of isomers) [13a cis-trans M, cis,trans-3-Methyl-11-cyanomethylene-6-(4-methylpiperazin-1-yl)-morphanthridine]", "values": [
      {"measurement": "Analgesic effect R.A. (relative activity)", "setting": "[1]", "result": 0.40},
      {"measurement": "Apomorphine antagonism R.A. (relative activity)", "setting": "[2]", "result": 0.23},
      {"measurement": "Sedative effect R.A. (relative activity)", "setting": "[3]", "result": 5.90}
    ]},
    {"compound": "Cc1ccc2c(c1)C(=CC#N)c1ccccc1C(N1CCN(C)CC1)=N2", "note": "(mixture of isomers) [13b cis-trans M, cis,trans-2-Methyl-11-cyanomethylene-6-(4-methyl-piperazin-1-yl)-morphanthridine]", "values": [
      {"measurement": "Anti-cholinergic effect (in words)", "setting": "[4]", "result": "manifests itself especially"},
      {"measurement": "Anti-cholinergic effect R.A. (relative activity)", "setting": "[4]; mouse, in vivo", "result": 5.15},
      {"measurement": "Analgesic effect R.A. (relative activity)", "setting": "[1]", "result": 0.21},
      {"measurement": "Apomorphine antagonism R.A. (relative activity)", "setting": "[2]", "result": 0.19},
      {"measurement": "Sedative effect R.A. (relative activity)", "setting": "[3]", "result": 1.41}
    ]},
    {"compound": "CCN1CCN(C2=Nc3ccccc3C(=CC#N)c3ccccc32)CC1", "note": "(mixture of isomers) [31 cis-trans M, cis,trans-11-Cyanomethylene-6-(4-ethyl-piperazin-1-yl)-morphanthridine]", "values": [
      {"measurement": "Anti-cholinergic effect (in words)", "setting": "[4]", "result": "manifests itself especially"},
      {"measurement": "Anti-cholinergic effect R.A. (relative activity)", "setting": "[4]; mouse, in vivo", "result": 1.81},
      {"measurement": "Analgesic effect R.A. (relative activity)", "setting": "[1]", "result": "< 0.21"},
      {"measurement": "Apomorphine antagonism R.A. (relative activity)", "setting": "[2]", "result": 0.19},
      {"measurement": "Sedative effect R.A. (relative activity)", "setting": "[3]", "result": 1.42}
    ]},
    {"compound": "CN1CCN(C2=Nc3ccccc3/C(=C/C#N)c3ccccc32)CC1", "note": "[1 cis-isomer, cis-11-cyanomethylene-6-(4-methylpiperazin-1-yl)-morphanthridine]", "values": [
      {"measurement": "Anti-cholinergic effect R.A. (relative activity)", "setting": "[4]; relative to Clozapin (1.00)", "result": 0.81},
      {"measurement": "Analgesic effect R.A. (relative activity)", "setting": "[1]", "result": 0.07},
      {"measurement": "Apomorphine antagonism R.A. (relative activity)", "setting": "[2]", "result": 0.17},
      {"measurement": "Sedative effect R.A. (relative activity)", "setting": "[3]", "result": 2.39}
    ]},
    {"compound": "CN1CCN(C2=Nc3ccccc3C(=CC#N)c3ccccc32)CC1", "note": "[1 cis-trans M, cis- and trans-11-Cyanomethylene-6-(4-methyl-piperazin-1-yl)-morphanthridine]", "values": [
      {"measurement": "Anti-cholinergic effect (in words)", "setting": "[4]; listed as Example 1 (cis-trans mixture)", "result": "manifests itself especially; also recorded: more strongly sedative and anti-cholinergic"},
      {"measurement": "Anti-cholinergic effect R.A. (relative activity)", "setting": "[4]; mouse, in vivo", "result": 2.25},
      {"measurement": "Analgesic effect R.A. (relative activity)", "setting": "[1]", "result": 0.04},
      {"measurement": "Apomorphine antagonism R.A. (relative activity)", "setting": "[2]", "result": 0.37},
      {"measurement": "Sedative effect R.A. (relative activity)", "setting": "[3]", "result": 1.71}
    ]},
    {"compound": "CN1CCN(C2=Nc3ccccc3/C(=C\\C#N)c3ccccc32)CC1", "note": "[1 trans-isomer, trans-11-cyanomethylene-6-(4-methyl-piperazin-1-yl)-morphanthridine]", "values": [
      {"measurement": "Anti-cholinergic effect R.A. (relative activity)", "setting": "[4]; relative to Clozapin (1.00)", "result": 3.00},
      {"measurement": "Analgesic effect R.A. (relative activity)", "setting": "[1]", "result": "< 0.10"},
      {"measurement": "Apomorphine antagonism R.A. (relative activity)", "setting": "[2]", "result": 0.67},
      {"measurement": "Sedative effect R.A. (relative activity)", "setting": "[3]", "result": "< 0.22"}
    ]},
    {"compound": "Cc1ccc2c(c1)N=C(N1CCN(C)CC1)c1ccccc1/C2=C\\C#N", "note": "[13a cis-isomer, cis-3-methyl-11-cyanomethylene-6-(4-methyl-piperazin-1-yl)-morphanthridine]", "values": [
      {"measurement": "Analgesic effect R.A. (relative activity)", "setting": "[1]", "result": 2.18},
      {"measurement": "Apomorphine antagonism R.A. (relative activity)", "setting": "[2]", "result": 0.09},
      {"measurement": "Sedative effect R.A. (relative activity)", "setting": "[3]", "result": 4.47}
    ]},
    {"compound": "Cc1ccc2c(c1)N=C(N1CCN(C)CC1)c1ccccc1/C2=C/C#N", "note": "[13a trans-isomer, trans-3-methyl-11-cyanomethylene-6-(4-methylpiperazin-1-yl)-morphanthridine]", "values": [
      {"measurement": "Anti-cholinergic effect (in words)", "setting": "[4]", "result": "stronger anti-cholinergic and apomorphine-antagonistic effect"},
      {"measurement": "Anti-cholinergic effect R.A. (relative activity)", "setting": "[4]; mouse, in vivo", "result": 1.15},
      {"measurement": "Analgesic effect R.A. (relative activity)", "setting": "[1]", "result": 0.03},
      {"measurement": "Apomorphine antagonism R.A. (relative activity)", "setting": "[2]", "result": 0.42}
    ]},
    {"compound": "CCN1CCN(C2=Nc3ccccc3/C(=C\\C#N)c3ccccc32)CC1", "note": "[31 trans-isomer, trans-11-cyanomethylene-6-(4-ethyl-piperazin-1-yl)-morphanthridine]", "values": [
      {"measurement": "Anti-cholinergic effect (in words)", "setting": "[4]", "result": "manifests itself especially; also recorded: stronger anti-cholinergic and apomorphine-antagonistic effect"},
      {"measurement": "Anti-cholinergic effect R.A. (relative activity)", "setting": "[4]; mouse, in vivo", "result": 2.52},
      {"measurement": "Analgesic effect R.A. (relative activity)", "setting": "[1]", "result": "< 0.04"},
      {"measurement": "Apomorphine antagonism R.A. (relative activity)", "setting": "[2]", "result": 0.37},
      {"measurement": "Sedative effect R.A. (relative activity)", "setting": "[3]", "result": "> 0.04"}
    ]}
  ]
}
